Measurements reported in ChEMBL document CHEMBL5104138, “Discovery of pyridyl urea sulfonamide inhibitors of NaV1.7” (Bioorg Med Chem Lett, 2022).

Protein sequences, listed by entry. Tags and fused reporters are not part of them.
UniProt Q15858, whole entry: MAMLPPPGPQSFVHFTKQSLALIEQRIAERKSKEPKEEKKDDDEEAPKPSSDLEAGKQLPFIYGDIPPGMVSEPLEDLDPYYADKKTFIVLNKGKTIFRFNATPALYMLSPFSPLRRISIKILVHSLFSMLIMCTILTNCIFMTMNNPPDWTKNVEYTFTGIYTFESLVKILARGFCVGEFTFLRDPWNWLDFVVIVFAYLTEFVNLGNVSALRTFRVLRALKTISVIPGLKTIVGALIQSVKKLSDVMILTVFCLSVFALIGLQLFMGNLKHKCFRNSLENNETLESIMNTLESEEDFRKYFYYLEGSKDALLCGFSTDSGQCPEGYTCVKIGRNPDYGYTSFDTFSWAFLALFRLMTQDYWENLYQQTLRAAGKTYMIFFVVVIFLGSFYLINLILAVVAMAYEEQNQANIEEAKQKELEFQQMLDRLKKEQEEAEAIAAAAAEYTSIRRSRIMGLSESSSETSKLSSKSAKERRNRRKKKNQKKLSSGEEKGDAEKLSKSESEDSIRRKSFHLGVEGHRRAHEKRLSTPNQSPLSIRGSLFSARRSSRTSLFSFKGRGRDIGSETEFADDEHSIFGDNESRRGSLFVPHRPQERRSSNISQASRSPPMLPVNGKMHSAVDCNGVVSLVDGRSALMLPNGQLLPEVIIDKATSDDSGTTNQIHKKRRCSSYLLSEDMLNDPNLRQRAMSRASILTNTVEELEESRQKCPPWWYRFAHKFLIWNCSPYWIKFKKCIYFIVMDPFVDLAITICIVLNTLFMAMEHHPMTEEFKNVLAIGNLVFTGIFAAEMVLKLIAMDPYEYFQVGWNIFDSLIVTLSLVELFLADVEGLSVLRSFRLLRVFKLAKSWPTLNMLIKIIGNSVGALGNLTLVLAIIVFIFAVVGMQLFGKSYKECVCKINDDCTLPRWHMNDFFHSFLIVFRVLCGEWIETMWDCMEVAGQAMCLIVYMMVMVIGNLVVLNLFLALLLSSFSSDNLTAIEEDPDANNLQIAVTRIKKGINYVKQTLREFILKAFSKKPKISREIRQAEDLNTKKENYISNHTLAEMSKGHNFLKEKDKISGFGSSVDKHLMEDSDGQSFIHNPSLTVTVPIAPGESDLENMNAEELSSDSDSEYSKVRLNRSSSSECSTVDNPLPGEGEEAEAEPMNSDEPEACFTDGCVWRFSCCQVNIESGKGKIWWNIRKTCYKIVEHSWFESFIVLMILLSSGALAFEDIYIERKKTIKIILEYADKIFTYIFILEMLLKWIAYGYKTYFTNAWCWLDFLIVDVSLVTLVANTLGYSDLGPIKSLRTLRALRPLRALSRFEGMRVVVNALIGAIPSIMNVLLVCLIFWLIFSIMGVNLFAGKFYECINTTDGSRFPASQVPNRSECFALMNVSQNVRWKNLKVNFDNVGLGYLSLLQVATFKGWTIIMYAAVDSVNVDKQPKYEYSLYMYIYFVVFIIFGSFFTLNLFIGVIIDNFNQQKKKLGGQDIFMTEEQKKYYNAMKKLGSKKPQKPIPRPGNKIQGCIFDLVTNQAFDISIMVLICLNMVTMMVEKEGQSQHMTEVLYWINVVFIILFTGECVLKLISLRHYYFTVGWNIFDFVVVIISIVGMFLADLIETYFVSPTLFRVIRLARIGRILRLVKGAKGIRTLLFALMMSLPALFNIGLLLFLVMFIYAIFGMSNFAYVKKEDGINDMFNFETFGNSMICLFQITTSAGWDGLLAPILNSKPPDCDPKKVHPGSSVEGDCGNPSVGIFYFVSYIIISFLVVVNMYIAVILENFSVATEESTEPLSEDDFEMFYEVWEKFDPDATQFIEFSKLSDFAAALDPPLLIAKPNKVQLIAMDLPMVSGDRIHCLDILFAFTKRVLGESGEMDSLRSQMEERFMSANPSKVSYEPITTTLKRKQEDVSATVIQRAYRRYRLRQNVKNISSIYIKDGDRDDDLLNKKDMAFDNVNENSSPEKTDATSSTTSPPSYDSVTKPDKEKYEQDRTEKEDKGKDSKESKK

Target: Sodium channel protein type 9 subunit alpha (Homo sapiens, UniProt Q15858)
Assay: Inhibition of human Nav1.7 by PatchXpress assay

IC50: 19 nM
SMILES: CNC(=O)N(c1ccc(S(=O)(=O)Nc2ncccn2)cn1)c1cc(F)c(-c2ccc(F)c(OC(F)(F)F)c2)cc1OC
